Experimental data published in ChEMBL document CHEMBL4251749.

Amino acid sequences for entries named in this document (tags omitted). A change or cut given only in a name is not applied to a line headed by its entry.
UniProt O42275: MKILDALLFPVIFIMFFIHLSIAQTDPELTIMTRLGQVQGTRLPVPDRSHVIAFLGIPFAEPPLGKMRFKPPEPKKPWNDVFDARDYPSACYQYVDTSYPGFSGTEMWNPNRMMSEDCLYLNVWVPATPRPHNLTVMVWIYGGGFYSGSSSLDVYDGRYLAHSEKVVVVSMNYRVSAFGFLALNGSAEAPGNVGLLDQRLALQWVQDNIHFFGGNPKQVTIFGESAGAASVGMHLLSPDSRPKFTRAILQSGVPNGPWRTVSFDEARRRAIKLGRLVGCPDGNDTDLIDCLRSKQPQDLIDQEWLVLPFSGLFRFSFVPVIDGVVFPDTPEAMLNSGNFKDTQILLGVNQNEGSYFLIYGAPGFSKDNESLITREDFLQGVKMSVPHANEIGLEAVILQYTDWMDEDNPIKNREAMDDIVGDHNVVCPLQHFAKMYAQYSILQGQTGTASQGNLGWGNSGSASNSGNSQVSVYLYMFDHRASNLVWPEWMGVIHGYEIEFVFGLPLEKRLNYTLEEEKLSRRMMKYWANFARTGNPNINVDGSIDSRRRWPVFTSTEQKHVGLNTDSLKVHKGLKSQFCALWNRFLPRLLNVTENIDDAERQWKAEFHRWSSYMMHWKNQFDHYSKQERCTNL
UniProt P22303: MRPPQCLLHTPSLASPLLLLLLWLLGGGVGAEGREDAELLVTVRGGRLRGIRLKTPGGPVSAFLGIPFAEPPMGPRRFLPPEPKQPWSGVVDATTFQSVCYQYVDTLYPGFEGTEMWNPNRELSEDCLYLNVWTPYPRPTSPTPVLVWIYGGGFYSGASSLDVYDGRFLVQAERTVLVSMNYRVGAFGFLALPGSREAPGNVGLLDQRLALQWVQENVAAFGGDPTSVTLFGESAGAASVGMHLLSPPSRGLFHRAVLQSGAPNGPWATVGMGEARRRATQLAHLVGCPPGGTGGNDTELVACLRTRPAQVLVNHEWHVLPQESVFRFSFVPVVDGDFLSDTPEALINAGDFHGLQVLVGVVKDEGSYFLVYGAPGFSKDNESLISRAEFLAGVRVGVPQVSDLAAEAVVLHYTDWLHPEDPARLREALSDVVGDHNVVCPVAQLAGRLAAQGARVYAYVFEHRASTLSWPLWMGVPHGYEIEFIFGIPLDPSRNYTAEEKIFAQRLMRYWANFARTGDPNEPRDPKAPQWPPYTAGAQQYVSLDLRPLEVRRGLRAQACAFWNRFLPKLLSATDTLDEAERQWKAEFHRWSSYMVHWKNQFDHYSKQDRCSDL

How the values were obtained:
[1] = target: Acetylcholinesterase (Electrophorus electricus) (UniProt O42275); test: Reactivation of methylphosphonate-aged electric eel AChE assessed as enzyme reactivation by measuring residual activity at 0.2 to 4 mM using acetylthiocholine as substrate after 1 day in presence of NH4F and 2-PAM at pH 8 and at 37 degC by Ellman's assay
[2] = target: Acetylcholinesterase (Electrophorus electricus) (UniProt O42275); test: Reactivation of EMP-inhibited electric eel AChE assessed as enzyme reactivation by measuring residual activity at 4 mM at pH 8 after 24 hrs using acetylthiocholine as substrate by Ellman's assay relative to control
[3] = target: Acetylcholinesterase (Electrophorus electricus) (UniProt O42275); test: Reactivation of isopropyl phosphate-aged electric eel AChE assessed as enzyme reactivation by measuring residual activity at 0.2 to 4 mM using acetylthiocholine as substrate after 1 day in presence of NH4F and 2-PAM at pH 8 and at 37 degC by Ellman's assay
[4] = target: Acetylcholinesterase (Electrophorus electricus) (UniProt O42275); test: Reactivation of EMP-inhibited electric eel AChE assessed as enzyme reactivation by measuring residual activity at 0.4 mM at pH 8 after 1 hr using acetylthiocholine as substrate by Ellman's assay relative to control
[5] = target: Acetylcholinesterase (Electrophorus electricus) (UniProt O42275); test: Resurrection of methylphosphonate-aged electric eel AChE assessed as enzyme reactivation by measuring residual activity at 4 mM using acetylthiocholine as substrate at pH 9 after 1 day by Ellman's assay relative to control
[6] = target: Acetylcholinesterase (Homo sapiens) (UniProt P22303); test: Resurrection of isopropyl phosphate-aged human recombinant AChE assessed as enzyme reactivation by measuring residual activity at 4 mM at pH 9 using acetylthiocholine as substrate after 7 days by Ellman's assay relative to control
[7] = target: Acetylcholinesterase (Homo sapiens) (UniProt P22303); test: Resurrection of isopropyl phosphate-aged human recombinant AChE assessed as enzyme reactivation rate by measuring residual activity at 4 mM at pH 9 using acetylthiocholine as substrate after 7 days by Ellman's assay relative to control
[8] = target: Acetylcholinesterase (Electrophorus electricus) (UniProt O42275); test: Resurrection of isopropyl phosphate-aged electric eel AChE assessed as enzyme reactivation rate by measuring residual activity at 4 mM using acetylthiocholine as substrate at pH 8 after 4 days by Ellman's assay relative to control
[9] = target: Acetylcholinesterase (Electrophorus electricus) (UniProt O42275); test: Resurrection of methylphosphonate-aged electric eel AChE assessed as native enzyme level at 100 mM in presence of trypsin by LC-MS/MS based bottom-up proteomics analysis (reference value: 0%)
[10] = target: Acetylcholinesterase (Electrophorus electricus) (UniProt O42275); test: Resurrection of isopropyl phosphate-aged electric eel AChE assessed as enzyme reactivation by measuring residual activity at 4 mM using acetylthiocholine as substrate at pH 9 after 1 day by Ellman's assay relative to control
[11] = target: Acetylcholinesterase (Electrophorus electricus) (UniProt O42275); test: Resurrection of isopropyl phosphate-aged electric eel AChE assessed as realkylated enzyme level at 100 mM in presence of trypsin by LC-MS/MS based bottom-up proteomics analysis (reference value: 0%)
[12] = target: Acetylcholinesterase (Electrophorus electricus) (UniProt O42275); test: Resurrection of methylphosphonate-aged electric eel AChE assessed as enzyme reactivation by measuring residual activity at 4 mM using acetylthiocholine as substrate at pH 8 after 4 days by Ellman's assay relative to control
[13] = target: Acetylcholinesterase (Electrophorus electricus) (UniProt O42275); test: Resurrection of methylphosphonate-aged electric eel AChE assessed as enzyme reactivation rate by measuring residual activity at 4 mM using acetylthiocholine as substrate at pH 8 after 4 days by Ellman's assay relative to control
[14] = target: Acetylcholinesterase (Electrophorus electricus) (UniProt O42275); test: Resurrection of methylphosphonate-aged electric eel AChE assessed as aged enzyme level at 100 mM in presence of trypsin by LC-MS/MS based bottom-up proteomics analysis (reference value: 100%)
[15] = target: Acetylcholinesterase (Electrophorus electricus) (UniProt O42275); test: Resurrection of methylphosphonate-aged electric eel AChE assessed as realkylated enzyme level at 100 mM in presence of trypsin by LC-MS/MS based bottom-up proteomics analysis (reference value: 0%)
[16] = target: Acetylcholinesterase (Electrophorus electricus) (UniProt O42275); test: Resurrection of isopropyl phosphate-aged electric eel AChE assessed as aged enzyme level at 100 mM in presence of trypsin by LC-MS/MS based bottom-up proteomics analysis (reference value: 100%)
[17] = target: Acetylcholinesterase (Electrophorus electricus) (UniProt O42275); test: Resurrection of isopropyl phosphate-aged electric eel AChE assessed as native enzyme level at 100 mM in presence of trypsin by LC-MS/MS based bottom-up proteomics analysis (reference value: 0%)
[18] = target: Acetylcholinesterase (Electrophorus electricus) (UniProt O42275); test: Resurrection of isopropyl phosphate-aged electric eel AChE assessed as enzyme reactivation by measuring residual activity at 4 mM using acetylthiocholine as substrate at pH 8 after 4 days by Ellman's assay relative to control

Compound: CCN(C)Cc1ncccc1O
- Activity [1]: Active
- Activity [2]: 64 to 80%
- Activity [3]: Active

Compound: CC(C)CN(C)Cc1ncccc1O
- Activity [1]: inactive
- Activity [3]: inactive

Compound: Oc1cccnc1CN1CCCCC1
- Activity [1]: inactive
- Activity [3]: inactive

Compound: Oc1cccnc1CN1CCN(Cc2ncccc2O)CC1
- Activity [1]: inactive
- Activity [3]: inactive

Compound: Oc1cccnc1CN1CCNCC1
- Activity [1]: inactive
- Activity [3]: inactive

Compound: Oc1cccnc1CN1CCC(F)(F)C1
- Activity [1]: inactive
- Activity [3]: inactive

Compound: Oc1nc2ccccc2cc1CN1CCCC1
- Activity [1]: inactive
- Activity [3]: inactive

Compound: COc1cc(CN2CCCC2)ccc1O
- Activity [1]: inactive
- Activity [3]: inactive

Compound: Oc1cccnc1CN1CCOCC1
- Activity [1]: inactive
- Activity [3]: inactive

Compound: Oc1cccnc1
- Activity [4]: Active

Compound: CCN(CC)Cc1ncccc1O
- Activity [1]: inactive
- Activity [3]: inactive

Compound: Oc1cc(CN2CCCC2)c2ccccc2n1
- Activity [1]: inactive
- Activity [3]: inactive

Compound: c1cc2c(cc1CN1CCCC1)OCO2
- Activity [1]: inactive
- Activity [3]: inactive

Compound: Oc1ccc(CN2CCCC2)cn1
- Activity [1]: inactive
- Activity [3]: inactive

Compound: CCCN(C)Cc1ncccc1O
- Activity [1]: inactive
- Activity [3]: inactive

Compound: Oc1cnc2ccccc2c1CN1CCCC1
- Activity [1]: inactive
- Activity [2]: 64 to 80%
- Activity [3]: Active

Compound: c1ccc(CN2CCCC2)nc1
- Activity [1]: inactive
- Activity [3]: inactive

Compound: Oc1cccnc1CN1CCCC1
- Activity [5]: 20%
- Activity [6]: 18%
- Activity [7]: 2.5 %/hr
- Activity [8]: 0.2 %/hr
- Activity [9]: 2.1%
- Activity [10]: Active
- Activity [11]: 0%
- Activity [1]: Active
- Activity [12]: 32.7%
- Activity [13]: 0.32 %/hr
- Activity [14]: 97.9%
- Activity [15]: 0%
- Activity [2]: 64 to 80%
- Activity [16]: 84.6%
- Activity [3]: Active
- Activity [17]: 15.4%
- Activity [18]: 20.4%

Compound: CC(C)N(C)Cc1ncccc1O
- Activity [1]: inactive
- Activity [3]: inactive

Calls of active or inactive are those of the source. The rule behind the calls is not given here.
